# Measured affinities in a library of Ab-14 light chain variants

Data: MIT Lincoln Laboratory AlphaSeq set, Li et al. 2023, doi:10.1038/s41467-023-39022-2, as distributed in FLAb.

Antigen: PDVDLGDISGINAS, a 14-residue peptide of the SARS-CoV-2 spike HR2 region.

Parent: Ab-14, a human scFv built as VH, a 15-residue (Gly4Ser)3 linker, VL. Only the CDRs of the light chain vary.
VH: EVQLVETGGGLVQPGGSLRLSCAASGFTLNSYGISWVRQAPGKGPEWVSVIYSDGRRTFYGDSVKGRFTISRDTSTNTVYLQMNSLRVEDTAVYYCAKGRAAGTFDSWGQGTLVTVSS
VL: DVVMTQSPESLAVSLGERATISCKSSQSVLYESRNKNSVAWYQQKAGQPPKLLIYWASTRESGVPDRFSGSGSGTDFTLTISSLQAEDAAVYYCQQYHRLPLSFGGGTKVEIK

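The starting antibody came from a phage panning campaign against this peptide. This is the validation round: designs drawn from the data on random variants, tested in the same kind of assay. Their group label is 14L_Ctrl (Ctrl: baseline library sampled from a position-specific scoring matrix, with some repeated check sequences). The assay is AlphaSeq: two haploid yeast populations carry antibody and antigen on their surface. Mating (16 h, 30 °C) was followed by selection of diploids and sequencing of their barcodes. A regression on co-assayed BCL2-family reference pairs converts the normalised counts of each replicate to an apparent Kd. The assay was run in six technical replicates.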

The parent's light chain CDRs are KSSQSVLYESRNKNSVA, WASTRES, QQYHRLPLS; each variant's own CDRs replace them letter for letter. Scale: log10 of Kd in nM, estimated from mating counts; low values are strong binders. A mean of the replicates is given; it leaves out those without a signal. An entry "ND" has no value in the source: the pair was not observed among the diploids in that replicate. This suggests poor binding but is not conclusive. Of ten entries with the parent sequence, four were seen in most replicates (averages 0.34 to 2.37), three in one and three in none, so single entries are noisy.

| CDR-L1 | CDR-L2 | CDR-L3 | replicates, log10 nM | log10 Kd (nM), mean | control signals |
|---|---|---|---|---|---|
| KSSTSVLYESRNANSVA | WASTREH | QQYHRLPLS | 1.05 / 1.25 / 1.58 / 2.72 / 1.61 / ND | 1.64 | 2/18 (1.50) |
| KMSQSVHYEARNKNSVA | WASTRES | QQYHRLPLS | 0.98 / 1.12 / 0.74 / 1.40 / 0.97 / 1.10 | 1.05 | 1/18 (2.24) |
| KILQSVTYQSPNKNSVA | HASTRES | QQYHRLPLS | 0.15 / 0.20 / 0.13 / 0.06 / 0.15 / 0.47 | 0.19 | 2/18 (2.94) |
| KSSQSVWYQSRNKNSVA | WASTRPS | QQYHRLPLS | ND / ND / ND / ND / 2.45 / 2.60 | 2.52 | 2/18 (1.99) |
| KVSQSVLYESHNKNSVA | WASTRES | QQYHRLPLS | 0.58 / 0.63 / 0.58 / 0.40 / 0.59 / 0.73 | 0.58 | 0/18 |
| KSSWQVLYESRNKNSVA | WASTREL | QQYARLPLS | ND / 1.19 / ND / ND / ND / ND | 1.19 | 0/18 |
| KVSQSHLGESRNKNNIA | AASTRES | QQYHRLPLS | 0.43 / 0.13 / 0.43 / 0.31 / 0.30 / 0.46 | 0.34 | 0/18 |
| KSSQSVLYESNNKNSVA | WASTREV | QQYSRLPLS | 1.76 / 1.57 / 0.99 / 1.30 / 1.19 / 0.99 | 1.30 | 1/18 (1.83) |
| SSSQEVLYESIHKNSVA | WASTRES | QQYHRLPLS | 1.33 / ND / 1.54 / ND / ND / 2.07 | 1.65 | 1/18 (2.49) |
| KSSQSVLYESYNKNSVA | DASIRES | QQYHRLPLS | 0.66 / 0.49 / 0.18 / 0.50 / 0.61 / 0.58 | 0.50 | 1/18 (2.58) |
| KVSISILYESRNHNSVA | WASTRES | QQYHRLPLS | 1.82 / ND / ND / ND / ND / ND | 1.82 | 0/18 |
| KSEQSVLYESRHKNSVA | DASTRLS | QQYHDLPLS | 1.35 / ND / -0.04 / 1.86 / 0.60 / 2.11 | 1.18 | 1/18 (1.91) |
| KSSQSVLYESRGKNSVA | WASTRED | QQYHRLPLS | 0.94 / 1.49 / 0.99 / 2.36 / 1.55 / 1.61 | 1.49 | 0/18 |
| KSSQSVTQEDRFKNSVA | WASTRES | QQYHRLPLS | ND / ND / ND / ND / ND / ND | ND | 0/18 |
| KSSQSVLYESRNKNSVA | AASTRED | QQYHRLPLS | 0.66 / 0.52 / 0.84 / 0.30 / 0.37 / 1.36 | 0.67 | 3/18 (3.18) |
| KSSQSGAYESRNKNSVA | DASTREL | QYYHRFPLS | 0.87 / 1.00 / 0.92 / 1.01 / 1.29 / 1.12 | 1.03 | 1/18 (2.89) |
| KSSQSLLYESRNKNSVA | GASTRES | QQYHRLPLS | 0.52 / 0.09 / 0.05 / 0.04 / -0.12 / 0.01 | 0.10 | 0/18 |
| KSSQSVLYESFNKNSVA | WASTREE | QQYHRLPLS | 2.03 / 2.10 / 1.23 / 1.20 / 1.86 / 1.87 | 1.72 | 1/18 (2.74) |
| KSSQSVLYQSRNKNSVA | WASTRES | QQYHRLPIS | ND / 2.11 / ND / ND / ND / 2.16 | 2.13 | 0/18 |
| KSEQSVLYESRNKNSVA | WASERES | QQYHRLPLS | ND / ND / ND / ND / ND / ND | ND | 0/18 |
| KSSQSVLYESRNKNSVA | DASTRES | QQYDRLPLS | 2.18 / 2.63 / ND / ND / ND / 2.24 | 2.35 | 1/18 (2.34) |
| HVSQSVLYESRNENSVA | WASTRVS | QQYHRLPWS | 1.48 / 0.61 / 1.79 / 2.25 / 0.51 / ND | 1.33 | 1/18 (3.20) |
| KSSQSALYESRNKNSVA | WASTRES | QQYHCLPLS | 1.35 / 0.72 / 2.04 / 1.28 / 1.58 / 3.03 | 1.67 | 0/18 |
| KYSQSVLYESRNKNSVA | AASTRES | QQYHRLPLS | -0.06 / -0.06 / -0.11 / -0.13 / -0.18 / -0.03 | -0.09 | 2/18 (2.81) |
| KSWQSLLYESRNKNSVA | WASTRES | QQYHRLPLS | ND / 2.02 / ND / 1.91 / ND / ND | 1.97 | 0/18 |
| RSKQSVLYESRNSNSVA | GASTRES | QQYHRLPLS | 0.13 / 0.15 / 0.14 / -0.11 / 0.01 / 0.16 | 0.08 | 1/18 (2.86) |
| KMSQSVLYESRNKNSVA | QASTRES | QQYHRLPLS | 1.91 / 1.79 / 1.38 / 1.93 / 1.50 / 1.99 | 1.75 | 1/18 (1.68) |
| KSSQSVLYESNNKNSVA | WASTRED | QQYHRLPLS | 0.73 / 0.90 / 0.68 / 0.84 / 0.92 / 0.86 | 0.82 | 2/18 (2.95) |
| KSSQSVLDESRNKQSVA | WASTRES | QQYHRLPLS | ND / ND / 1.65 / ND / 1.44 / 1.82 | 1.64 | 0/18 |
| KSSQSYLMESRNKNSVA | NASTRES | QFYHRLPLS | 0.90 / 0.54 / 0.48 / 0.70 / 0.63 / 0.72 | 0.66 | 1/18 (3.79) |
| KSSPSTLYESRNTNSVA | RASTRES | QQYHRLPLS | 0.28 / 1.23 / 1.03 / ND / 2.19 / 2.00 | 1.35 | 0/18 |
| KSSQSVMYESRNKNSVA | RASTRES | QQYHRLPLS | 1.64 / 2.43 / 1.72 / 2.01 / 1.89 / 1.82 | 1.92 | 1/18 (3.03) |
| KSSQSVLYEQRNKNSVA | GASTRES | QFYHRLPLE | -0.26 / -0.29 / -0.26 / -0.35 / -0.30 / 0.07 | -0.23 | 1/18 (1.82) |
| KSSQSVLYESRNQNSVA | WADIRES | QQYHRLPLS | 2.07 / 2.10 / 2.58 / 2.12 / 1.58 / 2.10 | 2.09 | 0/18 |

A selection of 6 entries from above:

| CDR-L1 | CDR-L2 | CDR-L3 | replicates, log10 nM | log10 Kd (nM), mean | control signals |
|---|---|---|---|---|---|
| SSSQEVLYESIHKNSVA | WASTRES | QQYHRLPLS | 1.33 / ND / 1.54 / ND / ND / 2.07 | 1.65 | 1/18 (2.49) |
| KVSISILYESRNHNSVA | WASTRES | QQYHRLPLS | 1.82 / ND / ND / ND / ND / ND | 1.82 | 0/18 |
| KMSQSVHYEARNKNSVA | WASTRES | QQYHRLPLS | 0.98 / 1.12 / 0.74 / 1.40 / 0.97 / 1.10 | 1.05 | 1/18 (2.24) |
| KSSQSVLYESFNKNSVA | WASTREE | QQYHRLPLS | 2.03 / 2.10 / 1.23 / 1.20 / 1.86 / 1.87 | 1.72 | 1/18 (2.74) |
| KSSQSGAYESRNKNSVA | DASTREL | QYYHRFPLS | 0.87 / 1.00 / 0.92 / 1.01 / 1.29 / 1.12 | 1.03 | 1/18 (2.89) |
| KSEQSVLYESRHKNSVA | DASTRLS | QQYHDLPLS | 1.35 / ND / -0.04 / 1.86 / 0.60 / 2.11 | 1.18 | 1/18 (1.91) |

Empty control strains, which show no peptide, gave a signal in 4% of pairings with all light chain designs; the median was 2.64 and 95% of these signals were weaker than 1.59. No background was subtracted. Also given: how often the same scFv was detected with the empty control strains, with their mean in brackets. The authors' rule: three or more of the six replicates give a measured affinity, fewer mean a poor binder. The range of this assay differs from that of the first round, and the authors advise against merging the two.